According to PubChem BioAssay AID652017 (The Scripps Research Institute Molecular Screening Center, 2013):
The list shows a part of the results, in another mix than the full data. Some results for these compounds are left out of this collection, so the calls shown say nothing about other tests. Activity calls are given as the source filed them. Rule as the data show it: active = activation above about 7.8%; inactive = the rest.

test: SMARCA2 (BRM) function activators, primary screen, cell-based, luminescence, high throughput (AID 652017); details: MG213 cells, MMTV-luciferase reporter, dexamethasone, overnight; at 9.1 µM; active compounds read high;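 also: 0% = vehicle wells and 100% = reference activator wells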

Row | Compound | activation
1 | CN1[C@@H]2CC[C@H]1CC(OC(=O)C(O)(c1ccccc1)c1ccccc1)C2 (stereo partly specified) | inactive: -1.77%
2 | O=C(NCC1(N2CCCCC2)CCCCC1)c1cc([N+](=O)[O-])ccc1Cl | inactive: 1.07%
3 | Cc1ccc(C(=O)NCC2(N3CCCCC3)CCCCC2)cc1 | inactive: 0.41%
4 | CC(C)N1C(=O)CC2(CCN(CCOC(=O)C(O)(c3ccccc3)c3ccccc3)CC2)C1=O | inactive: -3.54%
5 | CCN(CC)CC(C)C(C)OC(=O)C(O)(c1ccccc1)c1ccccc1 (stereo unspecified) | inactive: 0.81%
6 | COc1cc(SC)ccc1C(=O)NCC1(N(C)C)CCCCC1 | inactive: -2.71%
7 | Cc1ccccc1C(=O)NCC1(N2CCCCC2)CCCCC1 | inactive: 4.38%
8 | CN(C)c1ccc(C(=O)NCC2(N(C)C)CCCCC2)cc1 | inactive: 4.52%
9 | CN(C)C1CCCC1OC(=O)C(O)(c1ccccc1)c1ccccc1 (stereo unspecified) | inactive: -3.66%
10 | CCN1CCCC(OC(=O)C2(O)c3ccccc3C=Cc3ccccc32)C1 (stereo unspecified) | inactive: 0.6%
11 | Cc1cc(C(=O)NCC2(N3CCCCC3)CCCCC2)ccc1[N+](=O)[O-] | inactive: -0.15%
12 | O=C(NCC1(N2CCCCC2)CCCCC1)c1cccc(Br)c1 | inactive: 2.25%
13 | COc1ccc(C(=O)NCC2(N(C)C)CCCCC2)cc1 | inactive: -1.9%
14 | C=CCN1CCN(CCOC(=O)C(O)(c2ccccc2)c2ccccc2)CC1 | inactive: 0.18%
15 | O=C(NCC1(N2CCCCC2)CCCCC1)c1cc(F)c(F)cc1Cl | inactive: -1.95%
16 | COc1cc(C(=O)NCC2(N(C)C)CCCCC2)c([N+](=O)[O-])cc1OC | inactive: 0%
17 | CN(C)C1(CNC(=O)c2ccc(Br)cc2)CCCCC1 | inactive: -2.39%
18 | O=C(NCC1(N2CCCCC2)CCCCC1)c1cccc(Cl)c1 | inactive: -1.16%
19 | COc1cccc(C(=O)NCC2(N3CCCCC3)CCCCC2)c1 | inactive: -4.36%
20 | COc1ccc(Cl)cc1C(=O)NCC1(N(C)C)CCCCC1 | inactive: -1.54%
21 | O=C(OC1CN2CCC1CC2)C(CO)(c1ccccc1)c1ccccc1 (stereo unspecified) | inactive: 0.89%
22 | CN(C)c1cccc(C(=O)NCC2(N(C)C)CCCCC2)c1 | inactive: 1.81%
23 | CC(C)Oc1ccc(C(=O)NCC2(N(C)C)CCCCC2)cc1 | inactive: -4.31%
24 | O=C(OCCN1CCCC1)C(O)(c1ccccc1)c1ccccc1 | inactive: -0.51%
25 | COc1ccc(Br)c(C(=O)NCC2(N3CCCCC3)CCCCC2)c1 | inactive: -2.53%
26 | C=C(C)C#CC(O)(C(=O)OC1CCN(C)CC1)c1ccccc1 (stereo unspecified) | inactive: -5.03%
